# scFv variants of Ab-91 (heavy chain) against a SARS-CoV-2 spike peptide

Binding partner: SARS-CoV-2 spike HR2 peptide, sequence PDVDLGDISGINAS.

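AAYL51 was designed without a model: most single CDR substitutions and a random sample of double and triple ones. AlphaSeq pools MATa yeast showing the antibodies with MATalpha yeast showing the peptide. The frequency of each diploid, read from paired DNA barcodes, reflects how well the two displayed proteins bind. Read counts were normalised to the haploid input and turned into Kd by a linear fit to BCL2-family pairs of known affinity, for each replicate. There are three technical replicates.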

Each scFv is VL, the linker GGGGSGGGGSGGGGS, VH, as in the parent Ab-91, and differs from it in the CDRs of the heavy chain only.
VL: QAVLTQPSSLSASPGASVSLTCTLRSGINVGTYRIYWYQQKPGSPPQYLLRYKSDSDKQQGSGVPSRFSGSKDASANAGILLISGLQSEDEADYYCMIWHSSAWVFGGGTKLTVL
VH: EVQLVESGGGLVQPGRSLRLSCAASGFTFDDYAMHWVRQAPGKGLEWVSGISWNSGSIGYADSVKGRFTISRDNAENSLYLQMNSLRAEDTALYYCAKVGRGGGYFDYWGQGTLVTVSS

Substitutions are numbered in sequence along the VH above, starting at 1 (not Kabat). Affinities are written as log10 Kd with Kd in nM; a lower number is a better binder. The mean shown is taken over the replicates in which the pair was detected. "ND" marks a missing value. The strain was present, yet no cells mated with the target were sequenced in that replicate, which points to weak or no binding. Entries are sorted by rising average, undetected variants last. Parent in this assay: reference entry 1.86, copy in this library 0.88. As a blank, each scFv also met three strains without target: over library AAYL51, 21% of these pairings were detected, typically at 4.54 and seldom below 3.26.

| log10 Kd (nM) by replicate | mean log10 Kd (nM) | changes |
|---|---|---|
| 1.41 1.29 0.76 | 1.15 | G56K/K65E/Y108M |
| 1.84 2.28 1.34 | 1.82 | S63R/V64D/F106E |
| 2.07 1.58 ND | 1.83 | D31Q/G103I/D107K |
| 2.07 2.03 1.68 | 1.93 | D30M/G56T/S57Y |
| 2.34 3.31 2.66 | 2.77 | D30F/V64F/Y105K |
| ND 2.90 ND | 2.90 | F27N/A33K/G102Y |
| ND 3.37 ND | 3.37 | F27M/W53N/Y105A |
| 3.21 3.49 4.08 | 3.59 | G26A/T28K/G56T |
| ND ND 3.65 | 3.65 | I51G/S55M/F106P |
| 3.72 ND ND | 3.72 | N54Q/A61K/Y105T |
| 4.05 ND ND | 4.05 | F29C/D30G/G104M |
| ND ND 4.18 | 4.18 | Y32N/K65F/G102S |
| 4.78 4.39 3.68 | 4.28 | G50H/S52Q/N54L |
| 4.41 4.19 ND | 4.30 | N54P/V64I/F106T |
| ND 4.42 ND | 4.42 | G26D/T28R/R101T |
| 5.11 3.99 ND | 4.55 | G26I/Y60H/D107N |
| 4.55 ND 4.57 | 4.56 | S52C/G56L/Y108G |
| 4.57 ND ND | 4.57 | F27M/F29H/S55H |
| 4.10 4.44 5.38 | 4.64 | K65E/D107G |
| ND 4.87 ND | 4.87 | H35P/V64S/K65D |
| ND 5.02 ND | 5.02 | M34W/H35S/Y105D |
| 5.34 ND 4.86 | 5.10 | Y32R/N54K/V99E |
| 4.48 6.19 5.09 | 5.25 | F27S/Y32L/Y105D |
| 6.16 5.23 5.47 | 5.62 | D30V/S55W/S63A |
| 4.69 7.00 5.51 | 5.73 | H35R/S52P/G56Y |
| 6.02 ND 5.50 | 5.76 | D30T/H35F/S57W |
| ND 5.99 ND | 5.99 | G26R/D31P/S52M |
| ND ND ND | ND | S63H/V64F/V99G |
| ND ND ND | ND | D30E/M34E/W53V |
| ND ND ND | ND | W53A/G59N/D62M |
| ND ND ND | ND | F27R/D62R/Y105C |
| ND ND ND | ND | M34E/W53R/N54H |
| ND ND ND | ND | G26F/N54M/G104Y |
| ND ND ND | ND | A33L/F106W |
| ND ND ND | ND | Y32F/S55N/G56Q |

The first 4 variants above that were never detected:

{"changes": "S63H/V64F/V99G", "log10 Kd (nM) by replicate": "ND ND ND", "mean log10 Kd (nM)": "ND"}
{"changes": "D30E/M34E/W53V", "log10 Kd (nM) by replicate": "ND ND ND", "mean log10 Kd (nM)": "ND"}
{"changes": "W53A/G59N/D62M", "log10 Kd (nM) by replicate": "ND ND ND", "mean log10 Kd (nM)": "ND"}
{"changes": "F27R/D62R/Y105C", "log10 Kd (nM) by replicate": "ND ND ND", "mean log10 Kd (nM)": "ND"}

The measurements come from Engelhart et al. 2022 (doi:10.1038/s41597-022-01779-4) through the FLAb antibody collection.